Article PMC2697266 (Nature, 2009)

Target: T1, JARID1APHD3 (Homo sapiens, UniProt P29375)
T1 sequence (P29375 1607-1661 limits assumed): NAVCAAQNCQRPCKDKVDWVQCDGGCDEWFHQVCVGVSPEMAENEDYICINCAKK
Experiment: Biotinylated histone peptide pull-down, JARID1APHD3
Format: binding
Settings: 50mM Tris pH 7.5, 150mM NaCl (250mM as stringent washing), 0.05% NP-40, 0.3mg/ml BSA, 1mM DTT; qualitative

In the case of “H3K4me2: Histone H3 peptide dimethylated at Lys4”, the “interaction with JARID1APHD3 in peptide pull-down” value is reported as “interacted”.
